Values of other authors, collected in patent US7375111B2, “Compositions for affecting weight loss” (priority 2003, dated 2008).

Test system: serotonin reuptake
Settings: compared with fluoxetine; SAR of U.S. Pat. No. 4,214,081; cited from earlier work

CN(C)CCC(Oc1ccc(C(F)(F)F)cc1)c1ccccc1 (stereo not shown) [N-Methylfluoxetine]
Potency and selectivity toward inhibition of serotonin reuptake: comparable potency and selectivity to that of fluoxetine
